Melting point values, as collected for the OPERA models

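The OPERA project collected these measurements from public sources as training and test data for property models. A listed value is a point estimate from one report or more. How each value was measured is not recorded, so precision varies. Where a salt, mixture or single isomer is drawn, the source does not say that exactly this form was tested. Unmarked limits or estimates from the upstream databases cannot be ruled out.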

The melting point is given in degrees Celsius.
Cells with "n/a" have no entry in this list.
"via" names the databases from which the curators took the value.

structure (SMILES),name,mp (°C),via
C[N+]1(CC(=O)N/N=C/c2ccccc2O)CCOCC1.[Cl-],n/a,187,eChemPortal
Cc1nc2ccccn2c(=O)c1CCCl,"3-(2-Chloroethyl)-2-methyl-4H-pyrido(1,2-a)pyrimidin-4-one",143.6,eChemPortal
C=CCCC(=O)CC1CC2CCC1C2 (stereo not given),n/a,-111.6,eChemPortal
CC(=O)O[Si](OC(C)=O)(OC(C)(C)C)OC(C)(C)C,n/a,-90.08,eChemPortal
O=C(O)C=Cc1ccncc1,3-(4-Pyridinyl)-2-propenoic acid,265,OCHEM
CN(C)c1c(N)n(C)c(=O)[nH]c1=O,n/a,162,OCHEM
CCOC(=O)c1oc2ccc(OC)cc2c1C,Ethyl 5-methoxy-3-methyl-1-benzofuran-2-carboxylate,104,OCHEM
COc1ccc(NCc2ccc(N(C)C)cc2)cc1,"4-[(4-Methoxyanilino)methyl]-N,N-dimethylaniline",103,OCHEM
O=C(O)CCc1ncc(-c2ccc(F)cc2)o1,"3-[5-(4-Fluorophenyl)-1,3-oxazol-2-yl]propanoic acid",145,OCHEM
CC[C@]12CC[C@@H]3c4ccc(OC)cc4CC[C@H]3[C@@H]1CC[C@@H]2OC(C)=O,n/a,116,eChemPortal
CC(=O)c1ccc(S(=O)(=O)N2CCCCC2)cc1,1-[4-(Piperidine-1-sulfonyl)phenyl]ethan-1-one,140,OCHEM
CC(C)CCOC(=O)c1ccccc1,Isopentyl benzoate,-13.54,eChemPortal
CC(C)(C)NC(=O)c1ccc(N)cc1,4-amino-N-(tert-butyl)benzamide,125,OCHEM
N#CCC1=NC(=O)CS1,"(4-Oxo-4,5-dihydro-1,3-thiazol-2-yl)acetonitrile",184,OCHEM
CN1CCC[C@@H]1CCO[C@](C)(c1ccccc1)c1ccc(Cl)cc1,Clemastine,178,PubChem
CC(C#N)N(CC#N)CC#N (stereo not given),2-[Bis(cyanomethyl)amino]propanenitrile,80,eChemPortal
COc1cc(Br)c(CN(C=O)CCc2ccc(O)cc2)cc1O,n/a,162.3,eChemPortal
CC(=O)NC(CC(=O)O)c1ccccc1 (stereo not given),3-Acetamido-3-phenylpropanoic acid,166,OCHEM
CC(=O)N[C@H]1[C@H](OC(C)=O)O[C@H](COC(C)=O)[C@@H](OC(C)=O)[C@@H]1OC(C)=O,n/a,186.5,OCHEM
CC(C)(C)n1ncc(C(=O)O)c1C(F)(F)F,n/a,111,OCHEM
O=C1CCc2cc(F)ccc2N1,"6-Fluoro-3,4-dihydroquinolin-2(1H)-one",135,OCHEM
CC(O)C[N+](C)(C)C.[Cl-] (stereo not given),"1-Propanaminium, 2-hydroxy-N,N,N-trimethyl-, chloride (1:1)",165,OCHEM
CCCCCCCC(=O)OCCOc1ccccc1,Phenoxyethyl caprylate,14,eChemPortal
c1ccc2c(c1)NCCS2,"2,3-Dihydro-1,4-benzothiazine",36,OCHEM
Cc1nn(-c2cccc(Cl)c2)nc1C(=O)O,n/a,203,OCHEM
O=Cc1ccc(N2CCCCC2)s1,5-(Piperidin-1-yl)thiophene-2-carbaldehyde,74,OCHEM
Cc1cccc(-c2nnc(CCl)o2)c1,"2-(chloromethyl)-5-(3-methylphenyl)-1,3,4-oxadiazole",58,OCHEM
O=C(CCl)NC(=O)NC1CCCCC1,2-chloro-N-(cyclohexylcarbamoyl)acetamide,104,OCHEM
CCOC(=O)CN1C(=O)C(=O)c2ccccc21,n/a,128,OCHEM
COc1ccc(OC)c(-c2csc(N)n2)c1,"4-(2,5-dimethoxyphenyl)-1,3-thiazol-2-amine",114,OCHEM

The 4 highest values of mp among the entries above:

{"smiles": "O=C(O)C=Cc1ccncc1", "name": "3-(4-Pyridinyl)-2-propenoic acid", "mp (°C)": "265", "via": "OCHEM"}
{"smiles": "Cc1nn(-c2cccc(Cl)c2)nc1C(=O)O", "mp (°C)": "203", "via": "OCHEM"}
{"smiles": "C[N+]1(CC(=O)N/N=C/c2ccccc2O)CCOCC1.[Cl-]", "mp (°C)": "187", "via": "eChemPortal"}
{"smiles": "CC(=O)N[C@H]1[C@H](OC(C)=O)O[C@H](COC(C)=O)[C@@H](OC(C)=O)[C@@H]1OC(C)=O", "mp (°C)": "186.5", "via": "OCHEM"}

From the experimental data distributed with OPERA 2.9.